Columns and labels:
[1] = system: HCT116 MTAP (-/-) deleted cells; assay: Cell-Titer Glo proliferation inhibition, single agents and combinations, 144 h; conditions: single agent
Procedure: The HCT116 MTAP (-/-) deleted cells were provided by Kyinno Biotechnology Inc. The cells were cultured in a cell culture medium containing 90% RPMI1640 and 10% fetal bovine serum at 37°C and 5% CO2. Only cells in the logarithmic growth phase were used in the experiments.
(§1) The cell density was adjusted using complete medium and cells were then seeded into a 384-well cell culture plate. The cells in the 384-well plate were incubated at 37°C and 5% CO2. Two test compounds were added to the cell plate by serial dilution. After addition, the cells in the 384-well plate were incubated at 37°C and 5% CO2 for 144 hours. The CTG reagent was thawed and the cell plate was equilibrated to room temperature for 30 minutes. An equal volume of CTG solution was added to each well. The plate was shaken on an orbital shaker for 5 minutes to lyse the cells. The cell plate was placed at room temperature for 20 minutes to stabilize the luminescence signal. The luminescence values were read and data were collected.
(§2) Calcusyn was used to analyze the combination index (CI) values.

[2] = system: NCI-H838 MTAP(-/-) deleted cells; assay: as above; conditions: for IC20 / IC50 / Maximum Inhibition Rate (%): single agent
Procedure: The NCI-H838 MTAP(-/-) deleted cells were purchased from Kyinno Biotechnology (China); the cell culture medium, fetal bovine serum and penicillin-streptomycin were purchased from Thermo Fisher Scientific (USA); the Cell-Titer Glo kit was purchased from Promega Corporation (USA). The cells were cultured in a cell culture medium containing 90% RPMI1640 and 10% fetal bovine serum at 37°C and 5% CO2. Only cells in the logarithmic growth phase were used in the experiments.
as §1, with “96-well” for “384-well”
as §2

Structure (SMILES) | IC50 [2] [nM] | IC50 [1] [nM] | IC20 [1] [nM] | Maximum Inhibition Rate (%) [1] [%] | IC20 [2] [nM] | Maximum Inhibition Rate (%) [2] [%] | other results
CN(C(=O)c1ccc2nc(N)c3cncn3c2c1)[C@@H]1COc2cc(C(F)(F)F)ccc21 | 102 | – | 2.6 | 84.5 | 29.5 | 64.8 | –
Nc1nc(=O)n(-c2ccccc2Cl)c2nc(C(F)(F)F)ccc12 | 21.8 | 13.4 | 4.2 | 75.0 | 4.58 | 57.0 | Inhibition Rate (%) ([2]; Compound C 0 nM + IDE397 3 nM): 9.3%; Inhibition Rate (%) ([2]; Compound C 0 nM + IDE397 12 nM): 15.8%; Inhibition Rate (%) ([2]; Compound C 0 nM + IDE397 47 nM): 24.5%; Inhibition Rate (%) ([2]; Compound C 0 nM + IDE397 188 nM): 32.0%; Inhibition Rate (%) ([2]; Compound C 0 nM + IDE397 750 nM): 42.6%; Inhibition Rate (%) ([2]; Compound C 0 nM + IDE397 3000 nM): 44.9%
CN(C(=O)c1cc2c(cc1F)nc(N)c1cncn12)[C@@H]1COc2cc(C(F)(F)F)ccc21 | 79.8 | – | – | – | 22.2 | 62.7 | –
Nc1nc2cc(F)c(C(=O)N(Cc3ccc(C(F)(F)F)cn3)C3CC3)cc2n2cncc12 | 187 | – | – | – | 50.9 | 68.3 | –

Second part, led by results:

IC50 [2] [nM] | IC50 [1] [nM] | Structure (SMILES) | IC20 [1] [nM] | Maximum Inhibition Rate (%) [1] [%] | IC20 [2] [nM] | Maximum Inhibition Rate (%) [2] [%] | other results
90.9 | – | C[C@H](c1ccc(C(F)(F)F)cn1)N(C(=O)c1cc2c(cc1F)nc(N)c1cncn12)C1CC1 | – | – | 25 | 63.6 | Inhibition Rate (%) ([2]; Compound C 12 nM + IDE397 0 nM): -4.0%; Inhibition Rate (%) ([2]; Compound C 37 nM + IDE397 0 nM): 10.2%; Inhibition Rate (%) ([2]; Compound C 111 nM + IDE397 0 nM): 38.3%; Inhibition Rate (%) ([2]; Compound C 333 nM + IDE397 0 nM): 64.0%; Inhibition Rate (%) ([2]; Compound C 1000 nM + IDE397 0 nM): 70.0%; Inhibition Rate (%) ([2]; Compound C 3000 nM + IDE397 0 nM): 71.4%
– | 40 | COc1ccc(-c2c(Nc3ccccn3)[nH]c3c(C4=CCCCC4)c(-c4ccccc4)nn3c2=O)cc1 | 11.9 | 92.4 | – | – | –
